Among the data in ChEMBL document CHEMBL3886617, “NAMPT and rock inhibitors” (2016) are IC50 values, retold here.

By UniProt entry, the sequences of proteins in these tests, tags left out. Where a name states a change or a piece, a line headed by the entry shows the natural chain unless it says otherwise.
UniProt P43490: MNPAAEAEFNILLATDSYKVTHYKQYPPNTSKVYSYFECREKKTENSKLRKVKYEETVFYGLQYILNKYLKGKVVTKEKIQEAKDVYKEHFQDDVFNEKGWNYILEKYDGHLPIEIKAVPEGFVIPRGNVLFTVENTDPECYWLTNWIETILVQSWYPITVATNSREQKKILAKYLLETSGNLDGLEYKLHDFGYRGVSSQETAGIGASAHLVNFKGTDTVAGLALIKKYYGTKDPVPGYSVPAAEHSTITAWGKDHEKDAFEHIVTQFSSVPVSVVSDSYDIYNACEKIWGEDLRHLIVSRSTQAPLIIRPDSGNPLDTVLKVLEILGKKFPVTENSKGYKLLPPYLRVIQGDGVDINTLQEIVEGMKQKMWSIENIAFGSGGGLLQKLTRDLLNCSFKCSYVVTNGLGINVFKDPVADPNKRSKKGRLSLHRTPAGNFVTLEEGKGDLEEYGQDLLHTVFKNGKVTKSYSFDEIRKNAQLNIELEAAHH

SMILES strings stand for the structures.

The target of this test is Nicotinamide phosphoribosyltransferase (Homo sapiens, UniProt P43490).
On to `CN(CC(O)c1ccccc1)C(=O)c1ccc(NC(=O)N2Cc3ccccc3C2)cc1` (stereo unspecified), for which 154 nM corresponded to half-maximal inhibition (IC50).

`O=C(NCCN1CCCC1=O)c1ccc(NC(=O)N2Cc3ccc(F)cc3C2)cc1` gave an IC50 of 15 nM.

In the case of `COC[C@H](C)NC(=O)c1ccc(NC(=O)N2Cc3ccccc3C2)cc1`, the IC50 was determined as 255 nM.

`CCCNC(=O)c1ccc(NC(=O)N2Cc3ccc(CN)cc3C2)cc1` yielded an IC50 of 298 nM.

`O=C(NC1CCCCC1)c1ccc(NC(=O)N2Cc3ccccc3C2)cc1` came in with an IC50 of 133 nM.

`CCCC(=O)N[C@@H]1CCN(c2ccc(NC(=O)N3Cc4ccccc4C3)cc2)C1`: the IC50 came out at 783 nM.
